{"sequences": {"note": "Protein sequences, listed by entry. Tags and fused reporters are not part of them. Lines headed by an entry give the natural chain unless they say otherwise; changes in a name come on top.", "UniProt Q8TEK3": "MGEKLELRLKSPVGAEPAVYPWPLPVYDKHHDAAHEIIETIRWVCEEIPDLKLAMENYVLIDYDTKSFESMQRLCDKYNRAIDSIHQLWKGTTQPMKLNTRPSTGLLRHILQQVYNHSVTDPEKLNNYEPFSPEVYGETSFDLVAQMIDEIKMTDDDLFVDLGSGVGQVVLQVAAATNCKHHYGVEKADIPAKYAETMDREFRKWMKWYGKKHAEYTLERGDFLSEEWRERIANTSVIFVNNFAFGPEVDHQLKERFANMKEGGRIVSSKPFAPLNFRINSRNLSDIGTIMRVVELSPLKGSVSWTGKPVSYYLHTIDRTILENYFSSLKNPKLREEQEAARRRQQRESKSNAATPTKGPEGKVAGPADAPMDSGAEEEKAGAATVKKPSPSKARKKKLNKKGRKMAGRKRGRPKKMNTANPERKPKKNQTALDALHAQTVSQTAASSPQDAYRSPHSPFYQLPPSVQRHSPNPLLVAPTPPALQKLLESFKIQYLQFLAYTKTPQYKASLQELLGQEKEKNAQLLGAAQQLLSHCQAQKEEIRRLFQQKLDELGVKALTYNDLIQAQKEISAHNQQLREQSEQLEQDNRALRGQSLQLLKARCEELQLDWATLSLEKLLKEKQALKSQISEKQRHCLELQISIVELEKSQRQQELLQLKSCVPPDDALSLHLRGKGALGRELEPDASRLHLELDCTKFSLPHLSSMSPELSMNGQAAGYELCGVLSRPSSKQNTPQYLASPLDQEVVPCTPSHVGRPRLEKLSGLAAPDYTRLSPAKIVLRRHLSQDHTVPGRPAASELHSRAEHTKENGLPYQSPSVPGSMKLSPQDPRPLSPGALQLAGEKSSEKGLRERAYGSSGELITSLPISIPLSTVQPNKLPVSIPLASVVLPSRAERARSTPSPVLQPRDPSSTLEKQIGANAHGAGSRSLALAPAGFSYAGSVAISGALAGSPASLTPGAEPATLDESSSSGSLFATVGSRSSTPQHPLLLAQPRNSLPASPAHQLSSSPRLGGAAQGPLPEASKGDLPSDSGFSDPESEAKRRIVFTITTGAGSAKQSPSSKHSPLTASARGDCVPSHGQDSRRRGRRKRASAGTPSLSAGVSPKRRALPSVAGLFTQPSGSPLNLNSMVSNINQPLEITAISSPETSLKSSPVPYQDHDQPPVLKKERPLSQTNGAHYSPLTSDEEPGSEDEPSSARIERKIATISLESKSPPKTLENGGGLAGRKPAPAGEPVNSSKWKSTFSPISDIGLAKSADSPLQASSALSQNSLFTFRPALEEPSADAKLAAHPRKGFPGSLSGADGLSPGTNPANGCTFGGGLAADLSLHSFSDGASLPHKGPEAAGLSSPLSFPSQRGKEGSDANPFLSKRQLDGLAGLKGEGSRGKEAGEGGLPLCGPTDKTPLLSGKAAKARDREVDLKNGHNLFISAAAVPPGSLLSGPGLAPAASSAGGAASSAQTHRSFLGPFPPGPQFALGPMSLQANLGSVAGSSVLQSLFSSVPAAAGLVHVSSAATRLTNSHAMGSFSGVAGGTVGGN"}, "source": "paper PMC6318333", "about": "“A chemical biology toolbox to study protein methyltransferases and epigenetic signaling” (Nature Communications, 2019)", "target": "DOT1L (Homo sapiens, UniProt Q8TEK3)"}
{"molecule": "CC(C)N(CCCNC(=O)Nc1ccc(C(C)(C)C)cc1)C[C@H]1O[C@@H](n2cc(Br)c3c(N)ncnc32)[C@H](O)[C@@H]1O", "note": "[SGC0946]", "values": [{"measurement": "competition chemoproteomics (LFQ MS) in Jurkat cell lysate", "value": "Chemoproteomic analysis of the DOT1L inhibitor SGC0946 in Jurkat cell lysates indicated that the probe is highly specific for DOT1L"}]}
